The record followed here is ChEMBL document CHEMBL1126140, “Nucleosides and nucleotides. 103. 2-Alkynyladenosines: a novel class of selective adenosine A2 receptor agonists with potent antihypertensive effects” (J Med Chem, 1992).

By UniProt entry, the sequences of proteins in these tests, tags left out.
UniProt P25099, whole entry: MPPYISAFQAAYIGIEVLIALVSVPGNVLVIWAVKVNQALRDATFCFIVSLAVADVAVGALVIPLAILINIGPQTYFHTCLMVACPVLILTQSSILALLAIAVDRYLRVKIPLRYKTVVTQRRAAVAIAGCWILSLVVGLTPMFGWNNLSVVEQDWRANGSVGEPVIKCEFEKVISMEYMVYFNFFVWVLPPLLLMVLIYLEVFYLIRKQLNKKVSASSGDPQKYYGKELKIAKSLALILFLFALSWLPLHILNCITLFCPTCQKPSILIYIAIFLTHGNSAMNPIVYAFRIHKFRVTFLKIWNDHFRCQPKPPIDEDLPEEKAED

The assay concerns the target Adenosine receptor A1 (Rattus norvegicus, UniProt P25099).

For the compound `CCNC(=O)[C@H]1O[C@@H](n2cnc3c(N)nc(NCCc4ccc(CCC(=O)O)cc4)nc32)[C@H](O)[C@@H]1O` [CGS-21680], affinity was put at a Ki of 1230 nM.
Turning to `Nc1nc(Nc2ccccc2)nc2c1ncn2[C@@H]1O[C@H](CO)[C@@H](O)[C@H]1O`, the affinity corresponds to a Ki of 780 nM.

A word on the Ki: it is a dissociation constant, usually derived from enzyme kinetics or from competition with a known ligand.
